Values quoted from earlier work as cited in patent publication US4649200A, “Substituted pyrroles with opioid receptor activity” (Regents of the University of Minnesota, priority 1986, dated 1987).

System: mu receptors
Details: cited from earlier work

C=CCN1CC[C@]23c4c5ccc(O)c4O[C@H]2C(=O)CC[C@@]3(O)[C@H]1C5 [naloxone]
potency at mu receptors compared with kappa: much greater potency at mu receptors
